Assay results as given in patent US20050143392A1, “Chrysogenazine obtained from fungus Penicillium chrysogenum having antibacterial activity” (Council of Scientific & Industrial Research, priority 2003, published 2005).

Tested on: Vibrio cholerae MCM B-322
Test: Antibacterial activity, simple disc diffusion (agar diffusion) technique
Conditions: agar plates; chrysogenazine 5-30 mcg/disc; penicillin 10 units/disc, amphicillin 10 mcg/disc, streptomycin 10 mcg/disc

Work on `CC1(C)S[C@@H]2[C@H](NC(=O)[C@H](N)c3ccccc3)C(=O)N2[C@H]1C(=O)O` [amphicillin] yielded a zone of inhibition of 0 mm.
With `CC(C)=CCc1[nH]c2ccccc2c1C=C1NC(=O)C(C)NC1=O` (centres unmarked) [chrysogenazine, 3,1′-didehydro-3[2″(3′″,3′″-dimethyl-prop-2-enyl)-3″-indolylmethylene]-6-methylpiperazine-2,5-dione] the zone of inhibition was 4-5 mm.
